Here are results for 1 compound from PMC9663578, “A fluorogenic probe for predicting treatment response in non-small cell lung cancer with EGFR-activating mutations” (Nature Communications, 2022).

One experiment relates to HCC827 cells. The experiment is described as follows: Confocal imaging of HX103 uptake in living cells. The experiment is classed as cell-based, human. Particulars: pretreated with gefitinib 50 µM.
The test system of experiment [1] is tumor tissues from NSCLC patients. The experiment is described as follows: HX103-based multicolor FACS, surgical tumor tissues. The class given is cell-based, human. As to conditions: representative dot plots #12-T, #6-T, #15-T; not background-corrected.
The next experiment has as its system A431 cells. Nature of the experiment: Confocal imaging of HX103 uptake in living cells. As to conditions: pretreated with gefitinib 50 µM. The experiment is classed as cell-based, human.
The test system of experiment [2] is NSCLC patients with EGFR-activating mutations. The experiment is described as follows: Observational clinical study, response to EGFR-TKI therapy (CT imaging, RECIST). As to conditions: first-line treatment, one patient per line (Patients 1-15).

Values joined by “and” are separate entries in the source; they are usually repeats but may differ in a detail not shown here. Identical values can stand only once.

As for `COc1cc2ncnc(Nc3ccc(F)c(Cl)c3)c2cc1OCCCN1CCOCC1` [Gefitinib], the “lower uptake of HX103 than untreated cells” value in the experiment with HCC827 cells is on record as ~ 50%. Besides, in experiment [1], the “Q1, EGFR(+)HX103(–) cells in dot plot” value worked out at 84.0%. In addition, the “lower uptake of HX103 than untreated cells” value with A431 cells is reported as ~ 50%. Also, in experiment [2], the “Response in lesion size (%)” value is -72.8% and -46.6% and -60.0% and -32.5%; the Therapy response entry is “PR (defined as a ≥30% decrease in tumor size from the baseline, partial response (PR))”.
